Measurements from ChEMBL document CHEMBL6134892, “Discovery and Evaluation of DA-302168S as an Efficacious Oral Small-Molecule Glucagon-Like Peptide-1 Receptor Agonist” (J Med Chem, 2025).

Assays:
[1] = AUC last in Cynomolgus monkey at 0.5 mg/kg, iv measured up to 48 hrs by LC-MS/MS analysis; type: ADME, organism-based, Macaca fascicularis; details: in vivo
Cynomolgus monkey [2] = details: Macaca fascicularis; dose 3.0 mg/kg, route po, time 180.0 min
Cynomolgus monkey [3] = details: Macaca fascicularis; dose 10.0 mg/kg, route po, time 180.0 min

- AUC(0-t) at 48 h [1]: 1770 ng·h/mL
SMILES: O=C(O)c1ccc2nc(Cc3ccc(-c4ccc(F)c(OCc5ccc(Cl)c6ccoc56)n4)cc3F)n(C[C@@H]3CCO3)c2c1
- AUC (Cynomolgus monkey [2]): 7450 µM·h
- AUC (Cynomolgus monkey [3]): 6870 µM·h
